In BigSolDB 2.1:

Details: in ethanol, 298.15 K

solubility (mole fraction): 0.000438
Structure (SMILES): CS(=O)(=O)c1ccc([C@@H](O)[C@@H](CO)NC(=O)C(Cl)Cl)cc1
